# Data published in patent US9556152B2, “Heterocyclic amides as kinase inhibitors” (GlaxoSmithKline Intellectual Property Development Limited, priority 2013, dated 2017).
# Experiments:
# [1] = system: mouse TNF and zVAD induced temperature loss in mice; test: TNF/zVAD-driven systemic inflammatory response syndrome model (short modality), temperature loss; assay type: in vivo; details: oral pre-dose 30 mg/kg 15 minutes before i.v. mouse TNF and zVAD
# Protocol: (§1) TNF (or TNF/zVAD) induced manifestations include temperature loss, the production of numerous cytokines (including IL-6, IL-1b, MIP1β and MIP2) in the periphery, liver and intestinal inflammation and an increase of markers of cellular (LDH and CK) and liver damage (AST and ALT) in the serum.
# Each test compound is run through the TNF/zVAD and TNF (alone) versions of the model. For example, mice (7 mice per group) were orally pre-dosed with vehicle or test compound at 50 mg/kg 15 minutes before i.v. administration of mouse TNF (30 m/mouse) and zVAD (0.4 mg/mouse) simultaneously. Temperature loss in the mice was measured by rectal probe. The study was terminated when the control group lost 7 degrees, per our IACUC protocol. […] All data are shown as means±standard error of the mean.
# [2] = system: mouse TNF induced temperature loss in mice; test: TNF (alone)-driven systemic inflammatory response syndrome model (long modality), temperature loss; assay type: in vivo; details: oral pre-dose 50 mg/kg 15 minutes before i.v. mouse TNF
# Protocol: as §1
# In addition to the TNF/zVAD model, each compound is also tested in a TNF alone model. For the TNF (alone) version of the model, mice (7 mice per group) were orally pre-dosed with vehicle or test compound at 50 mg/kg 15 minutes before i.v. administration of mouse TNF (30 m/mouse). […] All data are shown as means±standard error of the mean.
smiles,measurement,setting,value
"CN1C(=O)[C@@H](NC(=O)c2nnc(Cc3ccccc3)[nH]2)COc2ccccc21 [Example 12, (S)-5-benzyl-N-(5-methyl-4-oxo-2,3,4,5-tetrahydrobenzo[b][1,4]oxazepin-3-yl)-4H-1,2,4-triazole-3-carboxamide]",% Inhibition,[1],93%
same,% Inhibition,[2],87%
